The values below come from ChEMBL document CHEMBL1128349 (J Med Chem, 1995).

By UniProt entry, the sequences of proteins in these tests, tags left out. Where a name states a change or a piece, a line headed by the entry shows the natural chain unless it says otherwise.
UniProt P22002: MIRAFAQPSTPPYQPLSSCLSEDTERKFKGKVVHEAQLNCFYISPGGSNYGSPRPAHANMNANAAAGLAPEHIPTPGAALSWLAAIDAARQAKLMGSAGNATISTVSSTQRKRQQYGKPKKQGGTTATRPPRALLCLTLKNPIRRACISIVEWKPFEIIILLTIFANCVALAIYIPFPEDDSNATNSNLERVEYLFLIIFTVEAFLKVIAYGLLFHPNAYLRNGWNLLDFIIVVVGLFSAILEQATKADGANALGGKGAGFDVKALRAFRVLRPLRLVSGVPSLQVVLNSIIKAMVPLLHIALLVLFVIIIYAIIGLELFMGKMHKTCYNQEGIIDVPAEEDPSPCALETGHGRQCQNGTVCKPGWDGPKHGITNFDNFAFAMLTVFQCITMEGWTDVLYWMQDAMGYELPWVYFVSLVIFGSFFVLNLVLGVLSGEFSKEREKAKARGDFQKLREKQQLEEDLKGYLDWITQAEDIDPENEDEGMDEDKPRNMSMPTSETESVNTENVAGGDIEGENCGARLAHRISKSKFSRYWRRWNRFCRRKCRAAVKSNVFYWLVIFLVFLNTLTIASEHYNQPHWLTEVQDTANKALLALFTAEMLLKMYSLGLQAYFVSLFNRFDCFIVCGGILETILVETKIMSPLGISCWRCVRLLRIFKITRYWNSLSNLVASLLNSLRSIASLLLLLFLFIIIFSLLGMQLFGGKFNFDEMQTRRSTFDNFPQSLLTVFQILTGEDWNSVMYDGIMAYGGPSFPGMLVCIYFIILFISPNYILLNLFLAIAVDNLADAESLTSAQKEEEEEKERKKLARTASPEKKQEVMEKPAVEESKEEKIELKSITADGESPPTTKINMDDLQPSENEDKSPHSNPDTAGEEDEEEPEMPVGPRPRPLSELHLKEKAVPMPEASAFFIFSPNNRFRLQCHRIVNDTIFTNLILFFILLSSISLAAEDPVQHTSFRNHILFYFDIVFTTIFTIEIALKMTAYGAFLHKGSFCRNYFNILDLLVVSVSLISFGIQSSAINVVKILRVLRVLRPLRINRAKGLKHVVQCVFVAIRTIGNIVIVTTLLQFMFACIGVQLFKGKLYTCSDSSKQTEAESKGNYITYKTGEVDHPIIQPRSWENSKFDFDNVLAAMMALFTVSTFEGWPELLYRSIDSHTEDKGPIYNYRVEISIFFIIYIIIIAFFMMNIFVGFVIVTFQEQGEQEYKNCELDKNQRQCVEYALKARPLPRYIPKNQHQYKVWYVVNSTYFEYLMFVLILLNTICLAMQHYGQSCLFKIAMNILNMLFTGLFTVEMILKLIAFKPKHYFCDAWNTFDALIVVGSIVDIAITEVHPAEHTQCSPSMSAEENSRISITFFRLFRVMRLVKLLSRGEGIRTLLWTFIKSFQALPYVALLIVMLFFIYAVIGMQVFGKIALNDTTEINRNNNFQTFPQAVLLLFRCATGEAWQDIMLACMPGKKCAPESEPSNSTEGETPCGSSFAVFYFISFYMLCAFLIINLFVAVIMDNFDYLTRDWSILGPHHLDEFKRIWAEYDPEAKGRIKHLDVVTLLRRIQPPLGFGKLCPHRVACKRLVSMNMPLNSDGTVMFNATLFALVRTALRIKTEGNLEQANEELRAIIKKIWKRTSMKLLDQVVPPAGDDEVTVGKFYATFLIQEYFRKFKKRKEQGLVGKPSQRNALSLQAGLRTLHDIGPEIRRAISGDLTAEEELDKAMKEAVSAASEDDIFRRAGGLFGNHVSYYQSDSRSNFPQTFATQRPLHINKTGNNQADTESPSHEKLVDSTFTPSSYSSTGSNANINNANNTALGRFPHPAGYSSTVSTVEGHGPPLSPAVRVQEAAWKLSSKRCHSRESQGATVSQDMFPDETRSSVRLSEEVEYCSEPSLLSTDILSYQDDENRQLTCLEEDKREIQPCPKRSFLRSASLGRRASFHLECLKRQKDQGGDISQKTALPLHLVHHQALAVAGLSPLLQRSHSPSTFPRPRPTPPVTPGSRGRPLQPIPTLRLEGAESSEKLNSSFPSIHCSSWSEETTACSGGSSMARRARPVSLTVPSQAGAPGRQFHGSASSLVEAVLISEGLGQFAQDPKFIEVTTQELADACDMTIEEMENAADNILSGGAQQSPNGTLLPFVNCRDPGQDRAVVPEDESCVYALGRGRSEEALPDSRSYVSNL
UniProt Q02485: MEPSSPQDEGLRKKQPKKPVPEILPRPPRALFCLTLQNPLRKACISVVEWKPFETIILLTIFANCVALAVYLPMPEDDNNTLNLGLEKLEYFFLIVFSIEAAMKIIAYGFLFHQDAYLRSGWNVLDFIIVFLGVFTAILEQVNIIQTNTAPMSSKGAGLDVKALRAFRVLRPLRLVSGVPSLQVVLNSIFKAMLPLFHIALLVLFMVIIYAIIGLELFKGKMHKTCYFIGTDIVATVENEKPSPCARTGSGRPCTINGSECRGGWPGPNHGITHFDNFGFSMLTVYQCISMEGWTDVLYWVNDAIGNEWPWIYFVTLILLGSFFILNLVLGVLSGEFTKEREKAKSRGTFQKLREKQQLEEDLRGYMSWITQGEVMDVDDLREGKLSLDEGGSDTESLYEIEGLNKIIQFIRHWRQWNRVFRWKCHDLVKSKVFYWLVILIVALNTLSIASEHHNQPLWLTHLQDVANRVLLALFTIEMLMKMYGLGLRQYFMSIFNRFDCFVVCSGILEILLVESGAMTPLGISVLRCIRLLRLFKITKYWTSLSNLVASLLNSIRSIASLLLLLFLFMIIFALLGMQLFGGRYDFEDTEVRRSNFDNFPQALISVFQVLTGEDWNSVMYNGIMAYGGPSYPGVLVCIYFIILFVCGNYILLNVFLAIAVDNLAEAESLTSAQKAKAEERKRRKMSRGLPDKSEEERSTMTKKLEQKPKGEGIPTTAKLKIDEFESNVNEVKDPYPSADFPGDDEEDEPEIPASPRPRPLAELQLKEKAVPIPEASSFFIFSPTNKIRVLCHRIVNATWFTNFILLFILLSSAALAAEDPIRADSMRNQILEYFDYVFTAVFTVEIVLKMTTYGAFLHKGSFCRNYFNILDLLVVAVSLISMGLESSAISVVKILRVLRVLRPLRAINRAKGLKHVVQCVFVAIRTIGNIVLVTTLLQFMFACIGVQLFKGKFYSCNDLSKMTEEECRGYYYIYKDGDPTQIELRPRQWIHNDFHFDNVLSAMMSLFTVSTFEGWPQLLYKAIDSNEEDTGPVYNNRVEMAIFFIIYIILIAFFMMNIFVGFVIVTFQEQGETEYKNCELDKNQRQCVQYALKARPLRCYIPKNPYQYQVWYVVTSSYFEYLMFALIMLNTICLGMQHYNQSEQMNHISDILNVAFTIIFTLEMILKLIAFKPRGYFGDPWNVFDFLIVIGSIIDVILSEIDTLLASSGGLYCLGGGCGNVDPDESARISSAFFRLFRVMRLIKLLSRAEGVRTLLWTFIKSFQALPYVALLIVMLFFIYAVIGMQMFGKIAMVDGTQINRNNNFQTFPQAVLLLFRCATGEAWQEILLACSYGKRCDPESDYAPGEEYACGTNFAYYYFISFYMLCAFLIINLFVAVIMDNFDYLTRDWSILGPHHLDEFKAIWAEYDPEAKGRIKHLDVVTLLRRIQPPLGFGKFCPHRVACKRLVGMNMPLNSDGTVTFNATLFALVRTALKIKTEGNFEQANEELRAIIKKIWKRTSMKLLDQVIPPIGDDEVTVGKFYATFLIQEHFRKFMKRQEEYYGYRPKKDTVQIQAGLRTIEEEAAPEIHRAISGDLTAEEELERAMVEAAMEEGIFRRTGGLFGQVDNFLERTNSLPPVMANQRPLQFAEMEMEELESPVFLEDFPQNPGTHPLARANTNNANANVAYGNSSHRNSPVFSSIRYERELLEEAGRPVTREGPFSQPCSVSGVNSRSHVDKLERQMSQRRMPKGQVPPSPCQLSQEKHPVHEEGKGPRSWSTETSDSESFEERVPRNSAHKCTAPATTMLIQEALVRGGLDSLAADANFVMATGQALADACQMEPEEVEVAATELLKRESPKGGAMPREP
UniProt P27732: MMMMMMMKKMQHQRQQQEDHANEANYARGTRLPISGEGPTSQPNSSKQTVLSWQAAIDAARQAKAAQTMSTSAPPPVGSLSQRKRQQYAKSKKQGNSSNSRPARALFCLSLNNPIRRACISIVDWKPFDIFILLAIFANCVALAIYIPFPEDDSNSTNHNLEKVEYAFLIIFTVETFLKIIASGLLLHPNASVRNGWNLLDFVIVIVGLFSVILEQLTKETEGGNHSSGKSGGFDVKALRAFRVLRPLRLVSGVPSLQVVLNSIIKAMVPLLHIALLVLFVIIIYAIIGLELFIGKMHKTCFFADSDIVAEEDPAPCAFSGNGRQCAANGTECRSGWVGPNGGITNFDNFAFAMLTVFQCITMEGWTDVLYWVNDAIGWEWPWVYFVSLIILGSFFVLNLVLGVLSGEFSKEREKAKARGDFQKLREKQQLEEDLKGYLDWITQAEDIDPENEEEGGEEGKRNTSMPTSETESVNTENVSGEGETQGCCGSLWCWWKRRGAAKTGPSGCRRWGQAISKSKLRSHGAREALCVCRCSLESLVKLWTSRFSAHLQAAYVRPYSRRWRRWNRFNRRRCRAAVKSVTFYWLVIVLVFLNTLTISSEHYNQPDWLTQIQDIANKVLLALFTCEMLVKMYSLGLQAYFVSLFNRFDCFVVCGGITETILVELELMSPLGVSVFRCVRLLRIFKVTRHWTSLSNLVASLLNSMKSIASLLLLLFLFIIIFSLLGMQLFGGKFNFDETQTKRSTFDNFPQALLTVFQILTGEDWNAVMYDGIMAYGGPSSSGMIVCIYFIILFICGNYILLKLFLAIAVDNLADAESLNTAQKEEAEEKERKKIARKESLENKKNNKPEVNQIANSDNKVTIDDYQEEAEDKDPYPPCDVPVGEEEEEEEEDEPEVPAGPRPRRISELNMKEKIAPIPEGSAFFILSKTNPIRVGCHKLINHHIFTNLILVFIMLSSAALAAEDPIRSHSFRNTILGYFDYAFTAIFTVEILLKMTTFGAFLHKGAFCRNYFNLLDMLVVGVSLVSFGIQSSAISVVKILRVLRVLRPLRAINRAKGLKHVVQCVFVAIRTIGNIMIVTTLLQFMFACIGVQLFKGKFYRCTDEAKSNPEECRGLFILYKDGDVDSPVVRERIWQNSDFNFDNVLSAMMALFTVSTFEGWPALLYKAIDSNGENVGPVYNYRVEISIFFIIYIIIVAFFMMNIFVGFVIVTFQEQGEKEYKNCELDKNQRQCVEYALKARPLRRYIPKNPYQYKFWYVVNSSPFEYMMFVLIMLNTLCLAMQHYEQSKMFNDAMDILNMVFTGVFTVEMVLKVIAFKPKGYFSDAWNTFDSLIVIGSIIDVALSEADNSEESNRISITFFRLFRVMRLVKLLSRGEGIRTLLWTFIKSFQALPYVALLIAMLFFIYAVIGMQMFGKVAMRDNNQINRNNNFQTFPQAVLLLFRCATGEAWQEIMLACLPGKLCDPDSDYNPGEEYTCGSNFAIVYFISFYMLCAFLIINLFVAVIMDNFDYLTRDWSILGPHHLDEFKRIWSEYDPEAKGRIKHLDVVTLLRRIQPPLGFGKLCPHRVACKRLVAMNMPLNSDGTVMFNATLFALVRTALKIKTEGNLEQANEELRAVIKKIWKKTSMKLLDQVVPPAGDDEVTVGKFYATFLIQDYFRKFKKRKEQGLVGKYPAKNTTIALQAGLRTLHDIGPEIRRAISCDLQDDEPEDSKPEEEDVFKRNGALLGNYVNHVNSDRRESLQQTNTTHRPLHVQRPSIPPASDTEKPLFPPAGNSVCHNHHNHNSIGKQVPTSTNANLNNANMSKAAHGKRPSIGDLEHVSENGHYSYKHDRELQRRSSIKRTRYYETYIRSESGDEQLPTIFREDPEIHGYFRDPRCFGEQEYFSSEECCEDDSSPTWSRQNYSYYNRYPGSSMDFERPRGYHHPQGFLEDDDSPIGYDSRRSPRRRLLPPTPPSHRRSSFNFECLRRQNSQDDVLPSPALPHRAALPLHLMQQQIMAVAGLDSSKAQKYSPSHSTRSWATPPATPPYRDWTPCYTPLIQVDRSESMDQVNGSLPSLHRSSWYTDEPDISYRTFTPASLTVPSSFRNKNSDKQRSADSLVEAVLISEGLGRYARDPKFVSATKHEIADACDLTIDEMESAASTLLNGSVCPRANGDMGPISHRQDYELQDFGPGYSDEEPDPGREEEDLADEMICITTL

This experiment has as its target Voltage-gated L-type calcium channel (Rattus norvegicus, UniProt P22002+Q02485+P27732). Nature of the experiment: Displacement of [3H]nitrendipine from rat brain L-type [Ca2+] channel. In kind it is tissue-based. For orientation: Loss of bound radioactivity is the signal in a displacement assay; it reports binding, not function.

Take `COC(=O)C1=C(C)NC(C)=C(C(=O)OCCCN2CCC(c3ccccc3)(c3ccccc3)CC2)[C@H]1c1cccc([N+](=O)[O-])c1` [NIGULDIPINE]: the inhibitory constant (Ki) (in general, the equilibrium dissociation constant of an inhibitor or competing ligand from its target) is 0.0046 µM.
On to `COC(=O)C1=C(C)NC(C)=C(C(=O)OCCCN2CCC(c3ccccc3)(c3ccccc3)CC2)[C@@H]1c1cccc([N+](=O)[O-])c1` [DEXNIGULDIPINE], for which the inhibition constant Ki came out at 0.092 µM.
